# Antibody variant affinities, Ab-14 heavy chain, assay 1

From the AlphaSeq antibody data of Engelhart et al. 2022 (doi:10.1038/s41597-022-01779-4), copy in the FLAb collection.

Target: peptide PDVDLGDISGINAS, taken from heptad repeat 2 (HR2) of SARS-CoV-2 spike.

Parent scFv Ab-14: VH joined to VL by three GGGGS repeats. Changes lie in the heavy chain CDRs alone.
VH: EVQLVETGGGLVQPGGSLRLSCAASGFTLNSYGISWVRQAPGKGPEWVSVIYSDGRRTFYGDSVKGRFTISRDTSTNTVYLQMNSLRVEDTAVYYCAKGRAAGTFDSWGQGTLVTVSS
VL: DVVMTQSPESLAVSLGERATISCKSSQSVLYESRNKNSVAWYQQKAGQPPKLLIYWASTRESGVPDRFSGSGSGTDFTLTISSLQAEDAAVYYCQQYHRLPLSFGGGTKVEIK

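The parent was found by panning a naive human phage display library on the peptide. In library AAYL49, one, two or three CDR residues were substituted; doubles and triples were drawn at random. In AlphaSeq, yeast of one mating type display the scFv and yeast of the other type display the target. The frequency of each diploid, read from paired DNA barcodes, reflects how well the two displayed proteins bind. Read counts were normalised to the haploid input and turned into Kd by a linear fit to BCL2-family pairs of known affinity, for each replicate. The assay was run in three technical replicates.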

Each variant is given by its three heavy chain CDRs, as the data file delimits them; those of the parent are GFTLNSYGIS, VIYSDGRRTFYGDSVK, GRAAGTFDS. The read-out is the apparent dissociation constant on a log10 scale (nM): the lower, the stronger. A pair that was not seen in that replicate is written "n.d."; this usually means weak binding, but a binder can also be missed. As a blank, each scFv also met three strains without target: over library AAYL49, 15% of these pairings were detected, typically at 4.06 and seldom below 2.83. For each scFv, signals with the empty controls are counted beside the result, with their mean in brackets.

CDR-H1	CDR-H2	CDR-H3	replicates, log10 nM	empty controls
IFTLNSYGIN	VIYSDGRRTFYGDSDK	GRAAGTFDS	n.d. n.d. n.d.	0/9
RFTINSYGIS	VIYLDGRRTFYGDSVK	GRAAGTFDS	n.d. n.d. 4.52	1/9 (4.18)
GFTLPSYGIS	VIYSDGRRTFYGDSKK	GRAAGTFDS	n.d. n.d. n.d.	0/9
GFNLDSYGIS	VIYSDGRRTFYGDSVK	GRAAGTFDP	n.d. n.d. n.d.	2/9 (3.92)
GFRLNSYGIS	VIYSQGRRTFYGDSVK	GRAAGTFIS	n.d. n.d. n.d.	2/9 (3.03)
GFTLNSYGIS	VIYSDGRRTFYGDSCK	GRAAGAFDT	1.89 1.76 2.70	2/9 (4.31)
GFTLNSYGIS	VDYSDGQRTFYGDSVK	GEAAGTFDS	n.d. n.d. n.d.	0/9
GFTLNSYGIS	VIYSDGRRTFYSDSVK	GRWNGTFDS	1.52 1.82 1.69	7/9 (4.13)
GFTLNSYGIS	VIYVDGRRTFYGDSVK	GRAAGCFDS	n.d. n.d. n.d.	0/9
GFTLNSRGIS	VIYSDGRRTFYGDSVK	GAANGTFDS	n.d. 3.43 n.d.	1/9 (4.20)
GFTLNSYGIS	VTYSDGRRTFQGDSVK	GRAAITFDS	n.d. n.d. n.d.	0/9
GFTLNSYGIS	VIYSDYRRTFYGDSQK	GRAASTFDS	n.d. 4.53 n.d.	2/9 (2.97)
GFTLNSYGIA	VIYSDGRITDYGDSVK	GRAAGTFDS	4.60 3.08 n.d.	0/9
GFTLNSYGIS	VIGSDGLRTFYGDSVK	GRAAGTFDS	n.d. n.d. n.d.	0/9
GFTLNCAGIS	VIYSDGRRTFYGDSVK	GRAAGTIDS	4.09 n.d. n.d.	4/9 (4.06)
WDTLNSYGIS	VIYSDGRRTFYGDSVM	GRAAGTFDS	n.d. n.d. n.d.	0/9
VFTLNSYGIS	VIYSDGTRTFYGDSVK	GRCAGTFDS	2.80 2.77 3.62	0/9
GFTLNSLGIS	VIYSDGRRTFIGDSVK	GRAAGTFDK	n.d. n.d. n.d.	0/9
GFTLNSYGIS	VIYSAGRRTFYGDEVK	GRAAGTFDS	n.d. n.d. n.d.	0/9
GFTINSYGIS	VMYSDGRHTFYGDSVK	GRAAGTFDS	2.32 2.80 2.29	3/9 (3.53)
PFALNSYGIS	VIYKDGRRTFYGDSVK	GRAAGTFDS	n.d. n.d. n.d.	0/9
GFPLNSYGIS	YIYSDGRRTFYGDSVK	GRAAGIFDS	n.d. 3.87 n.d.	1/9 (3.98)
GFTLNSYGES	VIYSDGRRTFRVDSVK	GRAAGTFDS	4.67 n.d. 5.92	4/9 (3.88)
GFTLNSYGIS	VINWDGRRTFYGDSWK	GRAAGTFDS	n.d. n.d. n.d.	1/9 (4.28)
GMTLNSYGNE	VIYSDGRRTFYGDSVK	GRAAGTFDS	n.d. n.d. n.d.	2/9 (3.54)
GFTLNGYWIS	VIYSDGRRTFYGDDVK	GRAAGTFDS	n.d. n.d. n.d.	0/9
GFTCNSYGIS	VIYSDERRTFTGDSVK	GRAAGTFDS	n.d. 3.34 n.d.	0/9
GFTLNSYGIS	VIYNDGRRTFYGDSVK	TRQAGTFDS	n.d. n.d. n.d.	1/9 (4.47)
GFTLNSYGIS	VIYSDIRRTFYGDYVK	GRAAGTADS	n.d. n.d. n.d.	1/9 (4.79)
GFTLNSYGIS	VIYSDGRRTFYQDSVK	GRAAGTFDS	0.90 1.06 1.12	2/9 (3.67)
GQTLNSYGIS	VIYSDKRRCFYGDSVK	GRAAGTFDS	n.d. 4.98 n.d.	1/9 (4.35)
GFTLNSYGIS	QIYSDGRRTFYGDGVK	GRAAGTFES	n.d. n.d. n.d.	1/9 (3.14)
GFTLNSYGQS	VIYVDGRRTFYGDSVK	GRAAGTTDS	4.33 3.58 5.06	4/9 (4.44)
GFTLNSYAIS	VIYFDGRRTFNGDSVK	GRAAGTFDS	n.d. 5.18 n.d.	2/9 (3.27)
GFTLESIGIS	VIYSDGRRTFYGDSVK	GPAAGTFDS	n.d. n.d. n.d.	0/9
GFTLNSYGIS	IIYSDGRRTLYGDSVK	GRAAGTFDK	n.d. n.d. n.d.	2/9 (3.71)
EFTLNSYGIS	VIYSDGRRTFYGDSVK	GRAAGTFDS	1.06 1.27 1.07	3/9 (4.13)
QFTLNSYGIS	VIYSDGRRTFYGDSVA	ARAAGTFDS	3.15 2.68 2.97	3/9 (3.33)
GFTLNSYGVM	VIYSDGRRTFYGDSMK	GRAAGTFDS	n.d. n.d. n.d.	0/9
GFTPNSYGIS	VWYSDGRRTFYGDSVK	GRAAGTFDI	n.d. n.d. n.d.	0/9
GFTLNSYGIS	VIYSDIRFTFYGDSVK	GRAACTFDS	n.d. 3.60 5.15	2/9 (4.13)
GFELNSYGIS	VIYSAGRRTFYGDSVK	GRPAGTFDS	n.d. n.d. n.d.	0/9

The opening 6 entries, copied out:

{"CDR-H1": "IFTLNSYGIN", "CDR-H2": "VIYSDGRRTFYGDSDK", "CDR-H3": "GRAAGTFDS", "replicates, log10 nM": "n.d. n.d. n.d.", "empty controls": "0/9"}
{"CDR-H1": "RFTINSYGIS", "CDR-H2": "VIYLDGRRTFYGDSVK", "CDR-H3": "GRAAGTFDS", "replicates, log10 nM": "n.d. n.d. 4.52", "empty controls": "1/9 (4.18)"}
{"CDR-H1": "GFTLPSYGIS", "CDR-H2": "VIYSDGRRTFYGDSKK", "CDR-H3": "GRAAGTFDS", "replicates, log10 nM": "n.d. n.d. n.d.", "empty controls": "0/9"}
{"CDR-H1": "GFNLDSYGIS", "CDR-H2": "VIYSDGRRTFYGDSVK", "CDR-H3": "GRAAGTFDP", "replicates, log10 nM": "n.d. n.d. n.d.", "empty controls": "2/9 (3.92)"}
{"CDR-H1": "GFRLNSYGIS", "CDR-H2": "VIYSQGRRTFYGDSVK", "CDR-H3": "GRAAGTFIS", "replicates, log10 nM": "n.d. n.d. n.d.", "empty controls": "2/9 (3.03)"}
{"CDR-H1": "GFTLNSYGIS", "CDR-H2": "VIYSDGRRTFYGDSCK", "CDR-H3": "GRAAGAFDT", "replicates, log10 nM": "1.89 1.76 2.70", "empty controls": "2/9 (4.31)"}